Test results as given in paper PMC6085657, “DNA display of fragment pairs as a tool for the discovery of novel biologically active small molecules” (Chemical Science, 2014).

Amino acid sequences for entries named in this document (tags omitted).
UniProt P0DMV8, whole entry: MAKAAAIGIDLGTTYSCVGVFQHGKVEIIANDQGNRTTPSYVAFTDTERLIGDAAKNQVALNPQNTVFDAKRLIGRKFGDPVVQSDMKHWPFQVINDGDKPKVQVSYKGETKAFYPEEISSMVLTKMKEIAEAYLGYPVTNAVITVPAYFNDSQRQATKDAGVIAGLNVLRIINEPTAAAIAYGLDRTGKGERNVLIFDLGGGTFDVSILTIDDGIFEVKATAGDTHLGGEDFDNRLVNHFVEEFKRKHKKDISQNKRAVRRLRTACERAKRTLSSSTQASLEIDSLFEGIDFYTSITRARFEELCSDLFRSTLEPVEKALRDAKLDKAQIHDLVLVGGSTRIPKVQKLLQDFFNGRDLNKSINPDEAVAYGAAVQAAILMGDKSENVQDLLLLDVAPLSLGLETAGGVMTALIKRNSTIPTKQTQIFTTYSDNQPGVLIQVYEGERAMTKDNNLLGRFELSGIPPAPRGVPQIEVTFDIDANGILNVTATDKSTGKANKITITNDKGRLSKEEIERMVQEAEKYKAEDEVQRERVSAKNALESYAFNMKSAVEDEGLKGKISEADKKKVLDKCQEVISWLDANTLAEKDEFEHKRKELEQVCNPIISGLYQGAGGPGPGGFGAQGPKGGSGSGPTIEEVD

Columns and labels:
[1] = biological target: Hsp70 (Homo sapiens, UniProt P0DMV8); test: SPR affinity measurement, biotinylated compounds immobilized on a streptavidin chip, Hsp70 analyte; type: binding; conditions: read-out: KD HSP70, compound immobilized on streptavidin chip, values in parentheses have chi2 > 10
[2] = biological target: Hsp90; test: SPR affinity measurement, biotinylated compounds immobilized on a streptavidin chip, Hsp90 analyte; type: binding; conditions: read-out: KD HSP90, compound immobilized on streptavidin chip, values in parentheses have chi2 > 10
[3] = biological target: Hsp70-GST (Homo sapiens, UniProt P0DMV8); test: Microarray-based screen of the focused library against Hsp70-GST (fluorescence, anti-GST DyLight 649); conditions: fluorescence intensity on the microarray, mean of four spots, SD between 5% and 10%; PNA-tagged library member
Text: A microarray pairing 125 biologically validated fragments[11] (FDA-approved drugs, bioactive natural products or fragments thereof) with a library of 500 heterocycles was used as a preliminary screen.[6] The microarray contained 62 500 unique DNA sequences that combinatorially paired both fragment libraries. […] The result from this screen with Hsp70 is shown in Fig. 2, arranged with fragments from the 125-fragment set and 500-fragment set on horizontal and vertical lines, respectively. The recurrence of binding across a line reflects the fitness of a given fragment. Thus, line intensities were used to rank the different fragments. What is interesting is that lines across the library of the 500-fragment set (4B, 24B, 44B, 84B, 124B, …) shared a common structural motif (biaryl-ether; Fig. 2). […] It is noteworthy that this biaryl moiety is part of a previously reported Hsp70 ligand (MAL3-101).[13],[14] […] Although screening fragments as conjugates to a nucleic acid tag restricts their binding mode to a particular orientation (the orientation that will position the linker to the tag toward the outside of the binding pocket), it greatly facilitates the synthesis of the corresponding covalent adduct combining both fragments, as the same chemistry that was used to link the fragments to the tag can be used to covalently pair them. […]

Kd [1]: 0.00765 µM
Kd [2]: 0.027 µM
FU microarray HSP70-GST [3]: 28 945 FU
Compound: CC1=C(CC(=O)NC(CNC(=O)C=Cc2ccc(C)cc2)C(=O)NCCCCC(NC(=O)COCCOCCNC(=O)CCCCC2SCC3NC(=O)NC32)C(N)=O)c2cc(F)ccc2C1=Cc1ccc([S+](C)[O-])cc1 (stereo not drawn)
